Results as given in PMC9486168, “Protein-protein interaction-based high throughput screening for adenylyl cyclase 1 inhibitors: Design, implementation, and discovery of a novel chemotype” (Frontiers in Pharmacology, 2022).

How the values were obtained:
[1] = biological target: T1, AC8-C2b/CaM (Homo sapiens, UniProt P0DP23); experiment: AC8-C2b/CaM FP counterscreen assay; type: binding; details: ratio >1: more potent in AC1/CaM FP;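 note: fluorescence polarization of AC peptide binding to GST-CaM in HEPES buffer with KCl and 50 µM CaCl2, compound preincubated 30 min with GST-CaM, DMSO and calmidazolium as controls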
T1 construct: made in house; host or cells: E. coli BL21-CodonPlus (DE3)-RIPL

[2] = biological target: T2, CaM (Homo sapiens, UniProt P0DP23); experiment: 1H-15N HSQC NMR of 15N-CaM with compound; type: binding; details: 5 equivalent molar excess over 100 μM CaM
T2 construct: 6X-His-GST (N, cleaved yes); made in house; host or cells: E. coli BL21-CodonPlus (DE3)-RIPL in M9 minimal media with 15NH4Cl
Experimental: All NMR samples contained 100 μM ^15N-CaM in 20 mM HEPES pH 7.4, 100 mM KCl, 10 mM CaCl2, 10% D2O, and 5% DMSO. Initial spectra were collected for CaM alone before individual compounds were titrated to observe chemical shift perturbations. All spectra were acquired at 298 K using a 600 MHz Bruker Avance NEO NMR spectrometer with a triple resonance gradient cryoprobe. NMR spectra were processed using NMRPipe and analyzed using NMRFAM-SPARKY.

CCc1oc2ccccc2c1C(=O)c1cc(Br)c(O)c(Br)c1 [Compound 12, Benzbromarone]
Ki ratio (AC8-C2b/AC1) [1]: ~3 and 3.1 | chemical shift perturbations (CSP) of 15N-CaM [2]: largest CSPs

Several values for one entry are separate records, joined by “and”; a condition that tells them apart may be missing. Identical values can stand only once.
